Source: article PMC5577105, “A New Chimeric Natriuretic Peptide, CNAAC, for the Treatment of Left Ventricular Dysfunction after Myocardial Infarction” (Scientific Reports, 2017)

Assay: Stability (degradation) of NPs in the circulation of rats after bolus injection
Details: rat in vivo, i.v. bolus 40 nmol/kg via jugular vein, HPLC / tandem MS peak area

## C-type natriuretic peptide [CNP]
Carotid blood at 5 min, mean, n = 5 (Fig. 2a)
  NP degraded in the first 5 min: 52.2%
Carotid blood at 10 min, mean, n = 5 (Fig. 2b)
  NP remaining at 10 min: 19.1%
Carotid blood at 20 min, mean, n = 5 (Fig. 2c)
  NP remaining at 20 min: Less than 10%
Carotid blood at 30 min, n = 5 (Fig. 2d)
  NP remaining at 30 min: completely degraded
